Results as given in patent US20250352600A1, “DIETARY SUPPLEMENTS FOR BRAIN HEALTH” (Melaleuca, Inc., priority 2024, published 2025).

Assays:
[1] = Low-Caffeine User Clinical Study, Profile of Mood States (POMS) survey; type: in vivo, human; settings: total mood disturbance, low-caffeine users, n = 30, Pre
Text: This study included subjective (POMS and product questions) and objective (CNSVS) tests. […] Composition A; and Composition B. The Profile of Mood States (POMS) survey measured several mood domains including fatigue and vigor (energy) together with tension, anger, depression, self-esteem, and confusion to aggregates as total mood disturbance (TMD). Thirty out of thirty-two participants completed the trial. […] There were 13 male and 17 female participants with an average age of 37.1 years.

[2] = Moderate-Caffeine User Follow-Up, Profile of Mood States (POMS) survey; type: in vivo, human; settings: moderate-caffeine users
Text: The study included subjective tests (POMS and product questions) only. […] Composition A; and Composition B. Thirteen participants completed the trial (1 completed ¾ arms due to scheduling interference). […] There were 7 male and 6 female participants with an average age of 39.5 years.

Q: Which TMD [1] does the source give for Cn1c(=O)c2c(ncn2C)n(C)c1=O [Caffeine, caffeine] here?
A: −2.86

Q: What about the Anger ([2]; n = 12-13, Post) of the same molecule?
A: 1.33 ± 3.45

Q: And the Anger ([2]; n = 12-13, Pre)?
A: 1.42 ± 2.23
